Laboratory results reported in patent US11890335B2, “ErbB peptide pharmaceutical and vaccine compositions and therapeutic uses thereof for cancer” (L2 Diagnostics, LLC, priority 2017, dated 2024).

What was measured:
[1] = system: MDA-MB-453 cells (HER2-positive, EGFR-negative); assay: Flow cytometry, binding to MDA-MB-453 cells; design: species or system human; details: serum 1:100 or antibody 5 μg/ml
Experimental: (§1) A431 and MDA-MB-453 cell lines were used for antibody binding flow cytometry experiments. Cells (10^5 cells/sample) were stained with a 1:100 dilution of serum in PBS with 0.1% BSA and 0.05% sodium azide for 1 h at 4° C. Cells were washed and incubated with a 1:100 dilution of either anti-mouse IgG fluorescein isothiocyanate (FITC; Sigma) or anti-human IgG AlexaFluor 488 (Molecular Probes, Invitrogen) for 1 h at 4° C. Some samples were further stained using anti-FITC AlexaFluor 488. Cells were washed and fixed in PBS+1% paraformaldehyde. Cells were analyzed on a FACSCalibur (BD Biosciences) with FlowJo software (Tree Star). Controls included unstained cells and cells stained with secondary antibody alone.

human EGFR on A431 cells = assay: Flow cytometry, binding to A431 cells; details: serum 1:100 or cetuximab 5 μg/ml
Experimental: as §1

MDA-MB-453 cells [2] = assay: ADCC assay with human PBMC, MDA-MB-453 cells; format: cell-based; details: 1:25 serum or 20 μg/ml antibody, human PBMC 50:1, 4 h, compared to rituximab
Experimental: All experimental sera were heat-inactivated (56° C., 30 min) prior to use. A431 or MDA-MB-453 cells were incubated with a 1:25 dilution of heat-inactivated sera or control antibody (20 μg/ml) 30 min at 37° C. in 96-well U bottom plates. Freshly isolated human peripheral blood mononuclear cells (PBMC) from healthy donors were incubated with antibody coated target cells at a 50:1 effector to target ratio for 4 h at 37° C. Fifty microliters of each cell culture supernatant was then assayed for lactate dehydrogenase released from dead cells using the CytoTox96 Non-Radioactive Cytotoxicity Assay (Promega) per manufacturer's instructions. Percent cytotoxicity was calculated as [(experimental-effector spontaneous-target spontaneous)/(target maximum-target spontaneous)]×100.

MDA-MB-453 cells [3] = details: control antibodies, 10-40 mg/ml concentrations tested

In the case of “trastuzumab: anti-human HER2 monoclonal antibody [reference compound]”, the “Binding to MDA-MB-453 cells by flow cytometry” value [1] is reported as “bound”.

In the case of “cetuximab: anti-human EGFR monoclonal antibody [reference compound]”, the “Staining of A431 cells by flow cytometry” value (human EGFR on A431 cells) is reported as “stain”, the “Binding to MDA-MB-453 cells by flow cytometry” value [1] is reported as “did not” and the “ADCC killing of MDA-MB-453 cells” value (MDA-MB-453 cells [2]) is reported as “failed to induce MDA-MB-453 cell killing”. The “MDA-MB-453 cell growth inhibition” value (MDA-MB-453 cells [3]) was “failed to inhibit”.
